Test: Apparent water/1-octanol partition coefficient of SDS hydrophobic ion pair complexes
Details: stoichiometric SDS; UV-visible absorption spectroscopy

SDS-HSA complex: hydrophobic ion pair complex of human serum albumin with SDS
partitioning into 1-octanol with SDS: could not be detected

Source: US20020032166A1, “Biocompatible cationic detergents and uses therefor” (University Technology Corporation, priority 1992, published 2002)
